Results from ChEMBL document CHEMBL4229490, “Cytotoxic and NF-κB and mitochondrial transmembrane potential inhibitory pentacyclic triterpenoids from Syzygium corticosum and their semi-synthetic derivatives” (Bioorg Med Chem, 2018).

Protein sequences, listed by entry. Tags and fused reporters are not part of them.
UniProt Q04206, whole entry: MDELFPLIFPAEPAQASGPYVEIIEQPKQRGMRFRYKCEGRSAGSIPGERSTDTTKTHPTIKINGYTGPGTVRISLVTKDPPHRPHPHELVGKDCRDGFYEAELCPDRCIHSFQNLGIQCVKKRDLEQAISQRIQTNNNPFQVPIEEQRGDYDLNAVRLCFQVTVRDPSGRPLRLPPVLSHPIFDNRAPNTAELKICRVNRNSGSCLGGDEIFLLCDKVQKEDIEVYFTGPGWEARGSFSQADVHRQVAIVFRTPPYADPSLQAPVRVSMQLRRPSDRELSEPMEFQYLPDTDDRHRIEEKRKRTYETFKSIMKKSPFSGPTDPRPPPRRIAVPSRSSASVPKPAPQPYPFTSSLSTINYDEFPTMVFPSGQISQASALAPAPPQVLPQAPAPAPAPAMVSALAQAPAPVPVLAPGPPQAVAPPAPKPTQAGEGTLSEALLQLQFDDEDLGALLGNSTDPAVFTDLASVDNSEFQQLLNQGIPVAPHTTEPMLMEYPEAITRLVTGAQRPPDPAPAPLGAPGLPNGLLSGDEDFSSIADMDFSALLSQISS

Target: Transcription factor p65 (Homo sapiens, UniProt Q04206)
Test: Inhibition of biotinylated consensus sequence binding to NF-kB p65 in human HeLa nuclear extracts after 3 hrs by ELISA
In short: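 HeLa cells exposed to test samples at four concentrations for 3 h, then nuclear extracts prepared. Binding of activated p65 to a biotinylated consensus sequence was measured with an ELISA transcription-factor kit by chemiluminescence. Rocaglamide served as positive control. Run in triplicate, representative of independent experiments. IC50 expressed in μM.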

SMILES: COc1ccc([C@@]23Oc4cc(OC)cc(OC)c4[C@]2(O)[C@H](O)[C@H](C(=O)N(C)C)[C@H]3c2ccccc2)cc1 [ROCAGLAMIDE]
- IC50: 70 nM
